Columns and labels:
[1] = molecular target: human PCNA N107C, N-terminally Histidine-tagged, coupled to SulfoLink agarose resin (PCNA-Agarose column) (human) (UniProt P12004); experiment: salt-gradient elution from PCNA-Agarose column, empirical cumulative integration
[2] = molecular target: human PCNA N107C, N-terminally Histidine-tagged, coupled to SulfoLink agarose resin (PCNA-Agarose column) (human) (UniProt P12004); experiment: salt-gradient elution from PCNA-Agarose column (N107C PCNA on SulfoLink resin), EMG fit of UV 280 nm peak

- median NaCl concentration of elution (50% cumulative elution) [1]: < 300 mM
- Elution Peak (mM NaCl, mode of EMG fit) [2]: 227 mM
Substance: PIP^p21-Tus: E. coli replication termination protein Tus with N-terminal p21 PIP motif, Histidine tag and SUMO tag (from UniProt P16525 1-309)

From patent US12583886 (KING ABDULLAH UNIVERSITY OF SCIENCE AND TECHNOLOGY, dated 2026)
